Assay results from ChEMBL document CHEMBL5055621, “Synthesis and Characterization of the Novel Rodent-Active and CNS-Penetrant P2X7 Receptor Antagonist Lu AF27139” (J Med Chem, 2021).

Key:
P2X purinoceptor 7 [1] = target: T1, P2X purinoceptor 7 (Rattus norvegicus, UniProt Q64663); assay: Antagonist activity at rat P2X7 receptor expressed in HEK293 cells assessed as inhibition of BzATP-induced calcium-flux measured after 60 mins by FLIPR analysis; type: cell-based
T1 sequence (Q64663 whole entry): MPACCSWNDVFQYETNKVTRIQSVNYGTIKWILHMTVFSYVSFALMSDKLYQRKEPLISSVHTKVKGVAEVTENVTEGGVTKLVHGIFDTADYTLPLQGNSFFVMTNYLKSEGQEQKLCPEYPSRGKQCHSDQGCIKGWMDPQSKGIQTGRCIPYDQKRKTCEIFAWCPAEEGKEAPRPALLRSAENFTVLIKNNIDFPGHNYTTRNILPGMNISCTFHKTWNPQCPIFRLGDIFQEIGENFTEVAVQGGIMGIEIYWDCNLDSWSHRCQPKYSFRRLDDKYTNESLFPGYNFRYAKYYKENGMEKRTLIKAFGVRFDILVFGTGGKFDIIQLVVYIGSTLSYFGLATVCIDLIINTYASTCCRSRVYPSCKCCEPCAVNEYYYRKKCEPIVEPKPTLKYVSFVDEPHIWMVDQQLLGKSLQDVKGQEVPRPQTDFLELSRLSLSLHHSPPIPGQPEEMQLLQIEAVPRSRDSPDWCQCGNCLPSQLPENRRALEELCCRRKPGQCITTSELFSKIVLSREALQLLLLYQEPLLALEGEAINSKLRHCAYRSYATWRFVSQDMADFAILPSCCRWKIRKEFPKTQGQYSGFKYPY
How it was run: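 Stable rat or mouse P2X7 HEK293 cells in HBSS/20 mM HEPES/2.5 mM probenecid/0.05% BSA, pH 7.4, were loaded with Fluo-4 NW (37 °C 30 min, RT 30 min). Antagonist was preincubated before EC80 BzATP (rat 15 μM). After 30 min at RT, calcium fluorescence was read by FLIPR; n ≥ 3.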

P2X purinoceptor 7 [2] = target: T1, P2X purinoceptor 7; assay: Displacement of [3H]-A-804598 from rat P2X7 receptor expressed in HEK293 cell membrane by in vitro binding assay; type: cell membranes
How it was run: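 Binding used membranes from P2X7-transfected HEK293 cells (rat 10 μg, human 40 μg, mouse 60 μg per well) with [3H]-A-804598.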

IC50 (P2X purinoceptor 7 [1]): 4 nM | Ki (P2X purinoceptor 7 [2]): 59 nM
Compound: COc1ccc(CC(=O)NC(N/C(=N/C#N)Nc2cccc3ncccc23)C(C)(C)C)cc1OC (configuration not stated)
